Results from patent publication US8759342B2, “Benzo[1,4]oxazin-3-one, benzo[1,4]thiazin-3-one and quinolin-2-one urotensin II receptor antagonists” (Janssen Pharmaceutica NV, priority 2006, dated 2014).

Molecular target: T1, Human UII receptors (Homo sapiens, UniProt Q9UKP6)
T1 construct: host or cells: Human Skeletal Muscle Myoblasts (HSMM), intact adherent cells
T1 sequence (Q9UKP6 1-389): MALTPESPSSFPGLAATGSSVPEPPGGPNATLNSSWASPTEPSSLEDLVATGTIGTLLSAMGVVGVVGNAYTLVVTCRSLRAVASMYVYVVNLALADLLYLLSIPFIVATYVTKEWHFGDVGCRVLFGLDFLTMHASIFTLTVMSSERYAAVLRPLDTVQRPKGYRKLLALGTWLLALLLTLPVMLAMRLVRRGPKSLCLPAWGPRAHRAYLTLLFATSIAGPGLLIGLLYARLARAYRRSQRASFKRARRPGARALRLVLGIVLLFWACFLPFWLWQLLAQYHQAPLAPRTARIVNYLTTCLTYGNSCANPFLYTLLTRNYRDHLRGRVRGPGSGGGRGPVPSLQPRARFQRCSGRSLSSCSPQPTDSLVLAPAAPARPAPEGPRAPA
Experiment: Human radioligand binding assay, (125I)-U-II on HSMM
Method: Human Skeletal Muscle Myoblasts (HSMM) were obtained from Cambrex, and were cultured according to manufacturer's instruction. Cell viability was examined by trypan blue exclusion. Cells at less than 4 passages were used in all studies. […] The binding medium used was Dulbecco's modified Eagle's medium (DMEM) containing 2 mg/ml BSA and 25 mM HEPES (pH 7.4). […] The cells were washed 4× with the binding medium and solubilized in 1% SDS and 0.5 N NaOH. Radioactivity was quantified by gamma counting.

## CN(C)C(=O)C1(c2ccc(Cl)cc2)CCN(CCN2C(=O)COc3ccccc32)CC1 [Cpd 113, 4-(4-chloro-phenyl)-1-[2-(3-oxo-2,3-dihydro-benzo[1,4]oxazin-4-yl)-ethyl]-piperidine-4-carboxylic acid dimethylamide]
  Ki: 1700 nM
